Reference: paper doi:10.1101/2025.02.02.636098v1 (biorxiv, 2025)

Target: T1, mFFA4 (mouse FFA4) (Mus musculus, UniProt Q7TMA4)
T1 sequence (Q7TMA4 1-361): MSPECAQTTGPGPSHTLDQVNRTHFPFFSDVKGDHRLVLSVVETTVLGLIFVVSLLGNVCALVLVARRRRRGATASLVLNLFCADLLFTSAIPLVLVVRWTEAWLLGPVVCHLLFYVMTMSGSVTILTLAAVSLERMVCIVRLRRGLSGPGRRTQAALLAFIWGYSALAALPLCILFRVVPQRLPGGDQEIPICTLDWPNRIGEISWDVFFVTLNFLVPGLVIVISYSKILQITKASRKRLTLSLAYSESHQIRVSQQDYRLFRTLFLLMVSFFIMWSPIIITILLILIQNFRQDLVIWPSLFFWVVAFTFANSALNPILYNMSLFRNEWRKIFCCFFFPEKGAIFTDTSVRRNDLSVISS
Test: Ca2+ mobilisation, Fura-2, Flp-In T-REx […]
Format: cell-based

EC50: 316 nM
Structure (SMILES): Cc1ccc(-c2ccc(F)cc2COc2ccc(CCC(=O)O)cc2)cc1 [TUG-891, 4-[(4-Fluoro-4’-methyl[1,1’-biphenyl]-2-yl)methoxy]-benzenepropanoic acid]
